As a reminder, the AC50 is the concentration giving half of the maximal activity seen.

Sequences of proteins named here, by UniProt entry; tags and fusion partners are left off.
UniProt Q07869, whole entry: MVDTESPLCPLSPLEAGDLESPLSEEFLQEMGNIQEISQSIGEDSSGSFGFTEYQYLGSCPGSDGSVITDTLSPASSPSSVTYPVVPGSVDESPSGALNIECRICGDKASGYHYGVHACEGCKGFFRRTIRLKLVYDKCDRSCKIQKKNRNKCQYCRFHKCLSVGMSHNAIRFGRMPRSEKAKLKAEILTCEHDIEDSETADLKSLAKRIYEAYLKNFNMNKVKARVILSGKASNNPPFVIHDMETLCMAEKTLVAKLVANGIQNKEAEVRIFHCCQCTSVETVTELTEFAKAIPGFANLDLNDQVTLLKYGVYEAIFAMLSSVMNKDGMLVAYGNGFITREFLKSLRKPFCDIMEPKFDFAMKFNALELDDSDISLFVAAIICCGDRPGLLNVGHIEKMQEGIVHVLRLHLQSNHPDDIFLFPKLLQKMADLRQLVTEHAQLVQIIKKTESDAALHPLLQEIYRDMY
UniProt Q03181, whole entry: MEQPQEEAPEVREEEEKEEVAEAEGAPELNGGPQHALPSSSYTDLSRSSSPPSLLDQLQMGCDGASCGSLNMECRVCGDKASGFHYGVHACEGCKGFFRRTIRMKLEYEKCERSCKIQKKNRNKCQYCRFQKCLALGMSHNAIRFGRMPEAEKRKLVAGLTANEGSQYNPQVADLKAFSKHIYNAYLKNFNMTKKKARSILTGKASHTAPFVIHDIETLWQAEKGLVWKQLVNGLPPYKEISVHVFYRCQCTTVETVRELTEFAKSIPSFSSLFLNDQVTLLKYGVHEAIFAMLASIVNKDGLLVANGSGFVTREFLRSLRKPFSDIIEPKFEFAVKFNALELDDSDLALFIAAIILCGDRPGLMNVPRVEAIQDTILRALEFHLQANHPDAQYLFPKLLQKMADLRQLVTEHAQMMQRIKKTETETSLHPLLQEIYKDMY
UniProt P37231, whole entry: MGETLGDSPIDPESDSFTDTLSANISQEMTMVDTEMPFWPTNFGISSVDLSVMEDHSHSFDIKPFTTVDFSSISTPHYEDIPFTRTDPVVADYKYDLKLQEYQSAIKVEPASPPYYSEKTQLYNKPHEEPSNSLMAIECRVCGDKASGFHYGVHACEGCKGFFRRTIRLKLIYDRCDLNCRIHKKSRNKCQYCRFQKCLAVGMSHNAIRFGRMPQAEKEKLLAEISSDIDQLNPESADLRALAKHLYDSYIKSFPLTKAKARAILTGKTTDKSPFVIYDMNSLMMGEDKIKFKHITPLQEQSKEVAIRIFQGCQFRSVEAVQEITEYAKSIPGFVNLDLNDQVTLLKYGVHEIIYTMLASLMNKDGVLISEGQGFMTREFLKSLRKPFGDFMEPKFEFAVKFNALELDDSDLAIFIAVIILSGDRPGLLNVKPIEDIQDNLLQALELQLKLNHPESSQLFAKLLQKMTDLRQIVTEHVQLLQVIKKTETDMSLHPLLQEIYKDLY
UniProt Q92753, whole entry: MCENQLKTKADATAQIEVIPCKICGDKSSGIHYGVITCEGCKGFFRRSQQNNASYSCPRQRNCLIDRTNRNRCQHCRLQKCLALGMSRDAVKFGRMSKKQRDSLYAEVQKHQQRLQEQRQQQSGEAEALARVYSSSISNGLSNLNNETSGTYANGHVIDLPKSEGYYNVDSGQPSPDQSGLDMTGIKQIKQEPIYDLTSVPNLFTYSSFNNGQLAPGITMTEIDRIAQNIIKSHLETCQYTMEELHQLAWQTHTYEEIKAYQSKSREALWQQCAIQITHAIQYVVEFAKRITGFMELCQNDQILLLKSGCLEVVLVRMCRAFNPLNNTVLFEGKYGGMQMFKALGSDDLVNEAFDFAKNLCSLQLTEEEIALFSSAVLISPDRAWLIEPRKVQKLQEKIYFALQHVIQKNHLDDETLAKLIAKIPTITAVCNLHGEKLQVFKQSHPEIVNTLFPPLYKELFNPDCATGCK
UniProt P10826, whole entry: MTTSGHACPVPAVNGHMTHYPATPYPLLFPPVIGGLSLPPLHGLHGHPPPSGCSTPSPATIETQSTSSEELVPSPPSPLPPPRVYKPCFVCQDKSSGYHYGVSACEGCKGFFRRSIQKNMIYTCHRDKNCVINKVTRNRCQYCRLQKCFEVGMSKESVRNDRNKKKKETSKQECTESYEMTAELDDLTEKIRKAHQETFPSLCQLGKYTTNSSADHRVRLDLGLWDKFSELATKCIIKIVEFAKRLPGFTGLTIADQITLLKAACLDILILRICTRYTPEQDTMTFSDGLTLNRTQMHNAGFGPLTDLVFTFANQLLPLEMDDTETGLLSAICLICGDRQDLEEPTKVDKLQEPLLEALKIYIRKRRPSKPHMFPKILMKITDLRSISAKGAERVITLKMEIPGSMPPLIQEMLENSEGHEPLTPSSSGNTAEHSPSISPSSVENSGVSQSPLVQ
UniProt O75469, whole entry: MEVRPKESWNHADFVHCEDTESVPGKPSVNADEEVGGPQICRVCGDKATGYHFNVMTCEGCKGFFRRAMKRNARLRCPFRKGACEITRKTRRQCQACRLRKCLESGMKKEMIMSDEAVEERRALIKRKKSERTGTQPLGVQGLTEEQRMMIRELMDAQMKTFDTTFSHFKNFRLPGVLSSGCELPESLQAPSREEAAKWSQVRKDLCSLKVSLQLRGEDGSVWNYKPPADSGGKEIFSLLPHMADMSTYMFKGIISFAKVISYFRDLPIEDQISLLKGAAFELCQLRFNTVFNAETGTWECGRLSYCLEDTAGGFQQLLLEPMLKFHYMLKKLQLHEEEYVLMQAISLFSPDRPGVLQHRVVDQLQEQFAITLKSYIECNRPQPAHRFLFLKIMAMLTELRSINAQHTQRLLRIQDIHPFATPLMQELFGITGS
UniProt P13631, whole entry: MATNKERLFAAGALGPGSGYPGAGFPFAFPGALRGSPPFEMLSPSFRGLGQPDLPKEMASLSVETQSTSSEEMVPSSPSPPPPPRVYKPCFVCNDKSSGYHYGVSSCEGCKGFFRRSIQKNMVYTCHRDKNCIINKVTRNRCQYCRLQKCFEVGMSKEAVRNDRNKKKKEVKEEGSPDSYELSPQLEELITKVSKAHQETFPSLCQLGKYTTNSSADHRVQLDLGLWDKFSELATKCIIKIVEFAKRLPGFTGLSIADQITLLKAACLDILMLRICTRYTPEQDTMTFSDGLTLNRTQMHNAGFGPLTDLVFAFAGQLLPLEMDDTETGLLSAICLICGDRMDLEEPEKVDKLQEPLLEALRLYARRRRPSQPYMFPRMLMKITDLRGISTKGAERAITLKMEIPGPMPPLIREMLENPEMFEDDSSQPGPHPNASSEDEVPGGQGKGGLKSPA
UniProt P10276, whole entry: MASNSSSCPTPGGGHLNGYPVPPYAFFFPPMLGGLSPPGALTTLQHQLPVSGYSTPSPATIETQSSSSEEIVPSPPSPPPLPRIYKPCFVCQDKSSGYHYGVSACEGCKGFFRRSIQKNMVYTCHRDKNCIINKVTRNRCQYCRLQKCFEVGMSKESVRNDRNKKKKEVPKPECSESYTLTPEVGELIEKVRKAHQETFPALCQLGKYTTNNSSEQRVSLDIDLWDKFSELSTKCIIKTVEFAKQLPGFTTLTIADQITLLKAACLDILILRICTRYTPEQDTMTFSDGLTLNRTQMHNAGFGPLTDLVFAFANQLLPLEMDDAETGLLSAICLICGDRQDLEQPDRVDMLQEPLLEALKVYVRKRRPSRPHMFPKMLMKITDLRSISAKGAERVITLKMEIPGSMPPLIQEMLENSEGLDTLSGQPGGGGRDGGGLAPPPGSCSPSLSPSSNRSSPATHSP

Twelve compounds from PubChem BioAssay (EPA / NIEHS) can be followed below.

This is a selection; strong and weak results do not stand in their true shares. Records with an inconclusive call do not appear. The source made the active and inactive calls. The calls were made as follows, unless noted: active = hit-call score of the fitted dose curve at least 0.9, where 1 is the maximum; inconclusive = response in the unintended direction; inactive = score below 0.9.

Experiment [1] has as its target human Peroxisome Proliferator-activated Receptor alpha (PPARa), PPARA (gene 5465) (UniProt Q07869). The experiment is described as follows: ATG_PPARa_TRANS: Attagene TRANS-FACTORIAL HepG2 Assay for human Peroxisome Proliferator-activated Receptor alpha (PPARa) (AID 2283001). The procedure:
(§1) ATG_TRANS is a cell-based, multiplexed-readout assay that uses HepG2, a human liver cell line, with measurements taken at 24 hours after chemical dosing in a 24-well plate.ATG_PPARa_TRANS is one of 30 assay component(s) measured or calculated from the ATG_TRANS assay. It is designed to make measurements of mRNA induction, a form of inducible reporter, as detected with fluorescence intensity signals by Reverse transcription polymerase chain reaction (RT-PCR) and Capillary electrophoresis technology.Data from the assay component ATG_PPARa_TRANS was analyzed into 1 assay endpoint. This assay endpoint, ATG_PPARa_TRANS, was analyzed in the positive analysis fitting direction relative to DMSO as the negative control and baseline of activity. Using a type of inducible reporter, measures of mRNA for gain-of-signal activity can be used to understand the reporter gene at the transcription factor-level as they relate to the gene PPARA. Furthermore, this assay endpoint can be referred to as a primary readout, because this assay has produced multiple assay endpoints where this one serves a reporter gene function. To generalize the intended target to other relatable targets, this assay endpoint is annotated to the nuclear receptor intended target family, where the subfamily is non-steroidal.
Human liver HepG2 cells are transiently transfected with multiple reporter transcription units (MRTUs) in 6-well plates using FuGene 6 reagent (Roche; 3 ml FuGene/1 mg DNA). The MRTU constructs are regulated by a cis-regulating element (promoter). […] A major difference between the CIS and TRANS system is that in CIS activities of endogenous TFs are measured, whereas the TRANS assay evaluates changes in activities of exogenous, chimeric NR-Gal4 proteins. […] At the end of 24 hour incubation, total RNA was isolated using TriZol reagent (Invitrogen). The isolated RNA is then reverse-transcribed using oligo(dT) primer and Mo-MLV reverse transcriptase (Invitrogen) with DNAse I (Ambion) treatment for 30 min. The one-tenth of the produced cDNA was amplified by PCR using Taq DNA polymerase (Invitrogen) and two reporter sequence-specific primers. The PCR products were fluorescently labeled by primer extension with 6-arboxyfluorescein (6-FAM) 5'-labeled reporter sequence-specific primer (2 min at 95 C, 20 s at 68 C and 10 min at 72 C) and these products were digested with 5U of HpaI (New England Biolabs) for 2h at 37 C. The fragments were purified using Qiaquick PCR columns (Qiagen), analyzed on an ABI 3130xL genetic analyzer (Applied Biosystems) with peak positions identified by using a set of X-rhodamine (ROX)-labeled MapMarker1000 molecular weight standards (BioVentures). The raw capillary electrophoresis data was processed using Attagraph software (Attagene).

Experiment [2] has as its target human Peroxisome Proliferator-activated Receptor delta (PPARd), PPARD (gene 5467) (UniProt Q03181). The experiment can be described thus: ATG_PPARd_TRANS: Attagene TRANS-FACTORIAL HepG2 Assay for human Peroxisome Proliferator-activated Receptor delta (PPARd) (AID 2283002). In outline: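 Multiplexed trans-activation format: HepG2 liver cells expressing exogenous NR-Gal4 chimeras and GAL4-UAS reporters were exposed for 24 h. Reporter mRNA was detected by RT-PCR with capillary electrophoresis fluorescence; activity fitted as gain of signal relative to DMSO.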

Experiment [3] deals with Peroxisome proliferator-activated receptor gamma (Homo sapiens) (UniProt P37231). The experiment can be described thus: ATG_PPARg_TRANS: Attagene TRANS-FACTORIAL HepG2 Assay for human Peroxisome Proliferator-activated Receptor-gamma (PPARg) (AID 2283007). A digest of the protocol:
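HepG2 cells transiently transfected with multiplexed GAL4-UAS reporter units and exogenous chimeric NR-Gal4 proteins; reporter mRNA quantified after 24 h compound exposure by RT-PCR, fluorescent labelling, HpaI digestion and capillary electrophoresis; gain-of-signal fitted versus DMSO baseline.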

Experiment [4] has as its target human RAR-related Orphan Receptor beta (RORb), RORB (gene 6096) (UniProt Q92753). The experiment is described as follows: ATG_RORb_TRANS: Attagene TRANS-FACTORIAL HepG2 Assay for human RAR-related Orphan Receptor beta (RORb) (AID 2283010). In outline: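 Readout is reporter-gene mRNA induction, detected as fluorescence after RT-PCR and capillary electrophoresis, fitted for gain of signal against DMSO controls. Transiently transfected HepG2 liver cells carrying GAL4-UAS reporter constructs were treated for 24 hours.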

Read-out in experiment [5]: Intercellular Adhesion Molecule 1 (ICAM1), ICAM1 (gene 3383)
The experiment can be described thus: BSK_3C_ICAM1: BioMAP Diversity Plus: 3C Assay for Intercellular Adhesion Molecule 1 (ICAM1) Biomarker Activity (AID 2283003; active = hit-call score of the fitted dose curve at least 0.9, where 1 is the maximum; inactive = score below 0.9). The following applies: actives raise or lower the signal; primary human endothelial cells (HUVEC). How it is done:
BSK_3C is a cell-based, multiplexed-readout assay that uses umbilical vein endothelium, a human vascular primary cell, with measurements taken at 24 hours after chemical dosing in a 96-well plate.BSK_3C_ICAM1 is an assay component measured in the BSK_3C assay. It measures ICAM-1 antibody related to regulation of gene expression using ELISA technology.Data from the assay component BSK_3C_ICAM1 was analyzed into 1 assay endpoint. This assay endpoint, BSK_3C_ICAM1, was analyzed with bidirectional fitting relative to DMSO as the negative control and baseline of activity. Using a type of binding reporter, gain or loss-of-signal activity can be used to understand changes in the signaling as they relate to the gene ICAM1. Furthermore, this assay endpoint can be referred to as a primary readout, because this assay has produced multiple assay endpoints where this one serves a signaling function. To generalize the intended target to other relatable targets, this assay endpoint is annotated to the cell adhesion molecules intended target family, where the subfamily is Immunoglobulin CAM.
The levels of cell surface (or secreted, indicated by the prefix "s") biomarker endpoints were measured by ELISA. Overt cytotoxicity to cells in confluent adherent cultures (all systems other than the BT system) was assessed by measuring total protein levels using sulforhodamine B (SRB) staining in parallel cultures at the time of biomarker measurements, indicated as SRB endpoints. For proliferation assays for adherent cell types, individual cell types are cultured at sub-confluence and relative cell numbers quantified by SRB staining at time points optimized for each system (48 h: 3C and CASM3C systems; 72 h: BT and HDF3CGF systems; 96 h: SAg system). SRB was performed by staining cells with 0.1% SRB after fixation with 10% TCA and reading wells at 560 nm.Viability and proliferation of PBMC (T cells) was quantified by Alamar Blue reduction for the SAg and BT systems. For PBMC viability (referred to as PBMC Cytotoxicity within the assay endpoint names), cells were plated (75,000/well in a 96-well plate) and then chemical samples added for 1 h before addition of activators, SEB and TSST-1 (20 ng/mL final concentration each). Cells were incubated for 90 h. Then, Alamar Blue (20 uL/well) (Invitrogen, Cat DAL1100) was added for 6 h, and the plates were read with a fluorescence microplate reader at 546/580 nm (excitation/emission). For PBMC proliferation, cells were plated and activated as above but incubated for only 16 h prior to addition of Alamar Blue. Plates were read after 6 h.

Experiment [6] has as its target human Retinoic Acid Receptor beta (RARb), RARB (gene 5915) (UniProt P10826). The experiment is described as follows: ATG_RARb_TRANS: Attagene TRANS-FACTORIAL HepG2 Assay for human Retinoic Acid Receptor beta (AID 2283004). The procedure:
as §1, with “plate.ATG_RARb_TRANS” for “plate.ATG_PPARa_TRANS”, “ATG_RARb_TRANS” for “ATG_PPARa_TRANS”, “ATG_RARb_TRANS,” for “ATG_PPARa_TRANS,”, “Using a type of inducible reporter, measures of mRNA for gain-of-signal activity can be used to understand the reporter gene at the transcription factor-level as they relate to the gene PPARA.” left out, “To generalize the intended target to other relatable targets, this assay endpoint is annotated to the nuclear receptor intended target family, where the subfamily is non-steroidal.” left out
Human liver HepG2 cells are transiently transfected with multiple reporter transcription units (MRTUs) in 6-well plates using FuGene 6 reagent (Roche; 3 ml FuGene/1 mg DNA). […] A major difference between the CIS and TRANS system is that in CIS activities of endogenous TFs are measured, whereas the TRANS assay evaluates changes in activities of exogenous, chimeric NR-Gal4 proteins. […]

Experiment [7] can be described thus: BSK_3C_Proliferation: Cell Proliferation Assessment in the BioMAP Diversity Plus: 3C Assay (AID 2283006; active = hit-call score of the fitted dose curve at least 0.9, where 1 is the maximum; inactive = score below 0.9). The following applies: primary human endothelial cells (HUVEC). A digest of the protocol: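 Read-out is total protein by SRB absorbance at 560 nm, taken as a proxy for relative cell number. Primary human umbilical vein endothelium cultured below confluence was dosed for 48 h, TCA-fixed and SRB-stained; curves were fitted bidirectionally versus DMSO.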

Experiment [8] concerns the target Nuclear receptor subfamily 1 group I member 2 (Homo sapiens) (UniProt O75469). The experiment is described as follows: ATG_PXR_TRANS: Attagene TRANS-FACTORIAL HepG2 Assay for human Pregnane X Receptor (PXR) (AID 2283008). In outline:
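Fluorescence intensity of FAM-labelled, HpaI-digested reporter amplicons, separated by capillary electrophoresis, quantifies induction. HepG2 cells with PXR-Gal4 trans-reporter system were exposed 24 h; DMSO defines baseline.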

Experiment [9] concerns the target human Retinoic Acid Receptor gamma (RARg), RARG (gene 5916) (UniProt P13631). The experiment is described as follows: ATG_RARg_TRANS: Attagene TRANS-FACTORIAL HepG2 Assay for human Retinoic Acid Receptor gamma (RARg) (AID 2283009). A digest of the protocol:
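Transient transfection of HepG2 with multi-reporter constructs, then 24 h chemical treatment. Total RNA isolated, reverse-transcribed, PCR-amplified, fluorescently labelled and resolved by capillary electrophoresis; activity scored as mRNA induction versus DMSO.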

Experiment [10] concerns the target Retinoic acid receptor alpha (Homo sapiens) (UniProt P10276). The experiment is described as follows: ATG_RARa_TRANS: Attagene TRANS-FACTORIAL HepG2 Assay for human Retinoic Acid Receptor alpha (RARa) (AID 2283005). A digest of the protocol:
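HepG2 cells transiently transfected with multiple reporter units expressing chimeric RARα-GAL4 fusion, with GAL4-UAS-driven reporters. After 24 h compound exposure, reporter mRNA induction quantified by RT-PCR and capillary electrophoresis with fluorescent labeling; gain-of-signal fitted relative to DMSO control.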

With `CN(C)CCCl`, the outcome in experiment [1], in [2] and in [3] was inactive.
Turning to `O=[N+]([O-])OCC(CO[N+](=O)[O-])(CO[N+](=O)[O-])CO[N+](=O)[O-]`, the compound was classed as inactive in [2] and in experiment [4].
Take `Cc1c([N+](=O)[O-])cccc1[N+](=O)[O-]`: the result in experiment [1], in experiment [2], in [5], in experiment [6], in experiment [7] and in [3] was inactive. The outcome in experiment [8] and in experiment [9] was inactive.
Regarding `N#CBr`, the compound was classed as inactive in experiment [2], in experiment [3], in [8] and in experiment [9].
On to `Cc1ccc([N+](=O)[O-])cc1[N+](=O)[O-]`, for which the outcome in [5], in experiment [7], in [3] and in experiment [8] was inactive.
Turning to `CC(C)N(CCO)C(C)C`, the outcome in experiment [1], in experiment [3] and in experiment [8] was inactive.
Consider `O=[N+]([O-])c1cccc([N+](=O)[O-])c1`, for which the compound was called inactive in experiment [1], in [5], in experiment [7] and in experiment [8].
For `Cc1cccc([N+](=O)[O-])c1[N+](=O)[O-]`, the outcome in experiment [1], in experiment [5], in experiment [7], in experiment [8] and in [4] was inactive. For the same compound, the AC50 in experiment [3] is active: 3740 nM.
As to `CC(C)OP(C)(=O)OC(C)C`, the outcome in [1], in experiment [2], in [5] and in [7] was inactive.
Take `COc1ccc([N+](=O)[O-])cc1[N+](=O)[O-]`: the result in experiment [1] and in experiment [8] was inactive.
`COP(C)(=O)OC`: the compound was classed as inactive in experiment [1], in experiment [2], in experiment [10], in experiment [3], in [8] and in experiment [9]. Moreover, the result in experiment [4] was inactive.
Turning to `Cc1ccc([N+](=O)[O-])c([N+](=O)[O-])c1`, the compound was called inactive in experiment [1], in [5], in experiment [7], in experiment [8] and in experiment [4]. In addition, the AC50 in experiment [3] was active: 1040 nM.
